The values that follow come from US12065409B2, “Analogs of 2-pralidoxime as antidotes against organophosphorus nerve agents” (dated 2024).

Structures are written as SMILES.

The target of one assay is Electrophorus electricus (electric eel) AChE (Electrophorus electricus, UniProt O42275). Put plainly: Ellman's assay: reactivation of paraoxon-inhibited electric eel AChE. The following applies: read-out: EC50, AChE activity (reactivation); 10 U/mL eel AChE, 20 μM paraoxon-ethyl, at 25 minutes, 1:89:10 isopropanol:phosphate:Tris pH 7.4; mean±SEM.
As to `CCCCOc1cc[n+](C)c(/C=N/O)c1`, the EC50 was 19 µM.

Another assay addresses human AChE (Homo sapiens, UniProt P22303). Put plainly: Ellman's assay: reactivation of paraoxon-ethyl-inhibited human AChE. The following applies: read-out: EC50, normalized AChE activity (reactivation); 10 U/mL human AChE, 20 μM paraoxon-ethyl, 0-600 μM reactivator, pH 7.4; mean±SEM.
Consider `C#CCOc1cc[n+](C)c(/C=N/O)c1`, for which the EC50 stood at 55 µM.

On to `C[n+]1ccc(CCCO)cc1/C=N/O`, for which the EC50 was 94 µM.

As for `C[n+]1ccc(OCC(F)(F)F)cc1/C=N/O`, the EC50 was 240 µM.

Turning to `CCSc1cc[n+](C)c(/C=N/O)c1`, the EC50 came to 43 µM.

For the compound `C[n+]1ccc(CCCCO)cc1/C=N/O`, the EC50 amounted to 43 µM.

Consider `CCOc1cc[n+](C)c(/C=N/O)c1`, for which the EC50 was 106 µM.
